The values below are quoted from earlier work in PMC10411393 (Journal of medicinal chemistry, 2022).

Sequences of proteins named here, by UniProt entry; tags and fusion partners are left off. Residues count along the entry.
UniProt Q71F23, whole entry, looked up, tested part not stated: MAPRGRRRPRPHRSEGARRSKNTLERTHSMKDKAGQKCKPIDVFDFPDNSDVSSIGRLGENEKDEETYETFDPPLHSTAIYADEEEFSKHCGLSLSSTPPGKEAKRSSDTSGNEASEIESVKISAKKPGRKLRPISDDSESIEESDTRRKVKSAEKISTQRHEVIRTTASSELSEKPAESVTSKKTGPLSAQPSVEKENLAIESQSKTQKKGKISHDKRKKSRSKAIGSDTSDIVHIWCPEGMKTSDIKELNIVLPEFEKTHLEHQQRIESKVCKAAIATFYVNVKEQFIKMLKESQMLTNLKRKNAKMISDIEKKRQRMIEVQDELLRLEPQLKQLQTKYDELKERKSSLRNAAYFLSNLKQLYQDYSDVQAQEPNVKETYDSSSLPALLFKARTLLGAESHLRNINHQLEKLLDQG
UniProt P53350, 371-603: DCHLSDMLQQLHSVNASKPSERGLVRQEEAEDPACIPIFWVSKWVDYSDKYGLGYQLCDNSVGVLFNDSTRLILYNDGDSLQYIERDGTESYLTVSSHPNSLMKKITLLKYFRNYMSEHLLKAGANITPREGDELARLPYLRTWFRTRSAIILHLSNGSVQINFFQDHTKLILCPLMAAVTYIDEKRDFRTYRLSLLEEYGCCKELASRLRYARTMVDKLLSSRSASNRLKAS

Broadly, the Kd is the free concentration of one partner at which half of the binding sites on the other are occupied at equilibrium, for simple one-to-one binding.

This data set deals with PBIP1 phosphopeptide PLHSpT (Homo sapiens) (UniProt Q71F23). The following applies: cited from earlier work.

In the case of Plk1 PBD (from UniProt P53350), the Kd is 450 nM.
